## Binding of CDR-mutated scFvs to a peptide of the spike HR2 region

Target: peptide PDVDLGDISGINAS, taken from heptad repeat 2 (HR2) of SARS-CoV-2 spike.

Each scFv is VH, a (GGGGS)3 linker, VL, as in the parent Ab-14, and differs from it in the CDRs of the light chain only.
VH: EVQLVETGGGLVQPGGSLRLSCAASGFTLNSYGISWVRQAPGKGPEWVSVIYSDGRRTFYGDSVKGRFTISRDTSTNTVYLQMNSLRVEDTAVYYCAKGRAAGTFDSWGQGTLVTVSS
VL: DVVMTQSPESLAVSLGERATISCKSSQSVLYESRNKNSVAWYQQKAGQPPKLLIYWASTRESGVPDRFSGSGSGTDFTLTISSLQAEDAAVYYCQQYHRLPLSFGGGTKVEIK

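This is the validation round: designs drawn from the data on random variants, tested in the same kind of assay. Group labels follow the data file (Ctrl: baseline library sampled from a position-specific scoring matrix, with some repeated check sequences; En: ensemble of fine-tuned language models; GP: Gaussian process model; HC: hill climbing; Gen: genetic algorithm; Gibbs: Gibbs sampling; a sequence that several methods proposed may carry one label only). In AlphaSeq, yeast of one mating type display the scFv and yeast of the other type display the target. Pairs that bind mate more often; barcode pairs of the diploids are counted by sequencing. Each replicate has its own calibration line, from reference interactions of the BCL2 family. Mating was done six times.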

Each variant is given by its three light chain CDRs, as the data file delimits them; those of the parent are KSSQSVLYESRNKNSVA, WASTRES, QQYHRLPLS. Kd is apparent (estimated from mating counts) and averaged on the log scale over replicates with a signal. Smaller is tighter. "nd" marks a missing value. The strain was present, yet no cells mated with the target were sequenced in any replicate, which points to weak or no binding.

CDR-L1	CDR-L2	CDR-L3	group	Kd (apparent)	detected
TIGQMLMQGIRNRSNVA	EVSERLN	QQYDRLPLA	En_Gen	11 nM	6 of 6
KSSQSVLYEGRNKNSVA	WASTGES	QQYSRLPLS	Ctrl	nd	0 of 6
TISQVMNTLTREGNNVA	DLQEREK	QQYFRLPLT	En_Gen	14 nM	6 of 6
HLSDSVLYESRNKNSVA	NASTRES	QQYHRLPLH	GP_HC	1.2 nM	6 of 6
KSSQSVPYESRNKNSVA	NASTREE	QQYHRLPLS	GP_HC	530 pM	6 of 6
KWQYSWLGSSRNKNSVA	EGSTRES	QQYHRLPLS	GP_Gibbs	7.3 nM	6 of 6
KLWQSWLYESRNKNSVA	NASTRES	QQYHRLPLS	GP_Gen	750 pM	6 of 6
KFSQMANQFSVSMNAVA	EMSTREN	QQYNRLPLA	En_Gen	2.7 nM	6 of 6
KWMQSVMQESRNKNSVA	HASTRMQ	QQYHRLPLS	GP_Gibbs	78 nM	5 of 6
ILLQVTTEHGAALNNIA	EGARRLD	QQYARLPLV	En_Gibbs	910 pM	6 of 6
KSSQSVPMESRNKNSVA	DASTRES	QQYHRLPLS	GP_HC	700 pM	6 of 6
KLYQSFLYESRNKNSVA	NASTRES	QQYHRLPLS	GP_Gen	1.2 nM	6 of 6
MLSEVAHGLSRKENSVA	DNDTRNS	QQYDRLPLS	En_Gen	7.6 nM	6 of 6
TLSQSWGMESHHKNNVA	QEETREK	QQYFRLPIS	En_HC	19 nM	6 of 6
KLDQSGLYGSRNKNSVA	EASERES	QQYHRLPLY	GP_Gibbs	1.2 nM	6 of 6
KVDMSQLYESRNKNSVA	NASLRMS	QQYHRLPLS	GP_Gibbs	1.0 nM	6 of 6
SIGGHMKSLSARMNSVA	DMTNRED	QQYDRLPLS	En_Gen	3.3 nM	6 of 6
HSSGSVAYESRNKNSVA	NASTRES	QQYHRLPLS	GP_HC	3.8 nM	6 of 6
KSSNSVLYDGTNKNSVA	WASTRES	QQYHRLPLS	Ctrl	10 nM	6 of 6
KFSQQVLYEDKQVNSVA	NASQRMS	QQYHRLPLS	GP_Gibbs	890 pM	6 of 6
KYSQPVLYESTNKNSVA	WASTREN	QQYHRLPLS	Ctrl	22 nM	6 of 6
KVSQSVLPESRNKNSVA	WASTRES	QQYHRLPLS	Ctrl	7.1 nM	6 of 6
KVMQLELYEQRNANNVA	NGSTRES	QQYHRLPLS	GP_Gibbs	610 pM	6 of 6
KVSESNLYESRNKNSVA	NASTRES	QQYHRLPLS	GP_Gen	920 pM	6 of 6
IVSQLMLWGAHAKNSIA	EAQTRLN	QQYDRLPLF	En_Gen	35 nM	4 of 6
KISQMTNFESTHINAVA	QMSTREE	QQYFRLPLS	En_HC	2.0 nM	6 of 6
KWSQSDLYESRNKNSVA	WASTRES	QQYHRLPLS	Ctrl	34 nM	6 of 6
IVSQLMLWGHLAKNSIA	EAQTRLN	QQYDRLPLM	En_Gen	34 nM	6 of 6
KMMQSELYESRNKNSVA	NASQRES	QQYHRLPLS	GP_Gen	1.3 nM	6 of 6
NVGQLMDGESRNKNSVA	HQSTRED	QHYHRLPLI	En_HC	nd	0 of 6
KIGLVTNGISFSKNSVA	EQSTRED	QQYDRLPLA	En_HC	190 nM	3 of 6
KLSQSQLYESRNKNSVA	SASHREH	QQYHRLPLS	GP_Gibbs	3.3 nM	6 of 6
KLSQSFLYESRNKNSVA	EASTREV	QQYHRLPLS	GP_Gen	770 pM	6 of 6
KVMQSVLYESRNKNSVA	NASTRES	QQYHRLPLS	GP_Gen	550 pM	6 of 6
KISQFYRMESRNKNSVA	DNSTRES	QDYDRLPLS	En_HC	460 nM	3 of 6
KIQQFYEYESRNKNSVA	SASTRMS	QQYHRLPLS	GP_Gibbs	1.9 nM	6 of 6
KLSQFYRMESRNKNSVA	DNSTRES	QSYDRLPLS	En_HC	5.3 µM	1 of 6
MISQIYNMGQFAINSVA	QASIRNS	QQYDRLPLM	En_Gen	170 nM	6 of 6
KSPQGALYESRNKNSVA	GASTRES	QQYHRLPLS	GP_HC	1.6 nM	6 of 6
KVSQSVLYESRVKNSVA	DASMRES	QQYHRLPLS	GP_Gibbs	850 pM	6 of 6
KIGMTLNTLTHQKNNVA	DLVEREN	QQYFRLPLS	En_Gen	870 pM	6 of 6
KLSQSDLYESRNANNVA	NASTRES	QQYHRLPLS	GP_Gen	610 pM	6 of 6
KSSQSVLYDSRNKNSVA	WASTRET	QQYHRLPLS	Ctrl	55 nM	6 of 6
KSSQSVSYESRNKNSVA	WASTRES	QQYHRLPLS	Ctrl	74 nM	2 of 6
KSRQSTLYESRNKNSVA	SDSTREQ	QQYHRLPLS	Ctrl	8.7 nM	6 of 6
KFSQSQPYESRMFNSVA	NASLRFS	QQYHRLPLS	GP_Gibbs	44 nM	6 of 6
GVDHTMYSAQQAPNSIA	NAEQTNI	QQYQRLPLS	En_Gibbs	4.7 nM	6 of 6
KSSQSSLYESRSKNSVA	NASTRES	NQYHRLPLS	Ctrl	5.8 nM	6 of 6
KSSQSVLYESRNKNSVA	WGSTRES	QQYSRLPLS	Ctrl	40 nM	6 of 6
KSSQSVLYEERNKNSVA	AADTRES	QQYHRWPLS	Ctrl	240 nM	6 of 6
KSSISELGEKRNKNSVA	EASTRES	QQYHRLPLS	GP_HC	14 nM	6 of 6
KLMQSHLYESRNKNSVA	NASTRES	QQYHRLPLS	GP_Gen	840 pM	6 of 6
KSSFSVLYESENKNSVA	EASQRES	QQYHRLPLS	GP_HC	3.1 nM	6 of 6
KLPQSVLYESRQKNSVA	NASTRES	QQYHRLPLS	GP_Gen	900 pM	6 of 6
KSSQWGLEESSNYNSVA	WASTRES	QQYHKLPLS	Ctrl	300 nM	3 of 6
KLSMSTLYESRNKNSVA	NASTRES	QQYHRLPLS	GP_HC	620 pM	6 of 6
KASQSVLYESRNKNSVA	AASTRES	QCPHRLPLS	Ctrl	nd	0 of 6
KVSPSWLYESRNKNAVA	EASTRES	QQYHRLPLS	GP_Gen	2.5 nM	6 of 6
ILSQSVLMGMHLKNSVA	QATTRFD	QQYHRLPLM	En_HC	5.7 nM	6 of 6
IVSQLMLWGMHHKNSIA	EAETRIN	QQYDRLPLF	En_Gen	220 nM	3 of 6
KLYQSVGTMSHDKQSIA	DMERRED	QQYHRLPLS	En_HC	nd	0 of 6
KSSQSVLMESRNKNSVA	DASTRLS	QQYHRLPLS	GP_HC	1.4 nM	6 of 6
KSSQSVLDESRNKQSVA	WASTRES	QQYHRLPLS	Ctrl	43 nM	3 of 6
KLSQSVLYESRVKNNVA	DASTRES	QQYHRLPLS	GP_Gen	580 pM	6 of 6
KQSCSELYGSRNKNSVA	DASQREE	QQYHRLPLS	GP_Gibbs	390 pM	6 of 6

Excerpt, the final 11 entries:

{"CDR-L1": "KSSQWGLEESSNYNSVA", "CDR-L2": "WASTRES", "CDR-L3": "QQYHKLPLS", "group": "Ctrl", "Kd (apparent)": "300 nM", "detected": "3 of 6"}
{"CDR-L1": "KLSMSTLYESRNKNSVA", "CDR-L2": "NASTRES", "CDR-L3": "QQYHRLPLS", "group": "GP_HC", "Kd (apparent)": "620 pM", "detected": "6 of 6"}
{"CDR-L1": "KASQSVLYESRNKNSVA", "CDR-L2": "AASTRES", "CDR-L3": "QCPHRLPLS", "group": "Ctrl", "Kd (apparent)": "nd", "detected": "0 of 6"}
{"CDR-L1": "KVSPSWLYESRNKNAVA", "CDR-L2": "EASTRES", "CDR-L3": "QQYHRLPLS", "group": "GP_Gen", "Kd (apparent)": "2.5 nM", "detected": "6 of 6"}
{"CDR-L1": "ILSQSVLMGMHLKNSVA", "CDR-L2": "QATTRFD", "CDR-L3": "QQYHRLPLM", "group": "En_HC", "Kd (apparent)": "5.7 nM", "detected": "6 of 6"}
{"CDR-L1": "IVSQLMLWGMHHKNSIA", "CDR-L2": "EAETRIN", "CDR-L3": "QQYDRLPLF", "group": "En_Gen", "Kd (apparent)": "220 nM", "detected": "3 of 6"}
{"CDR-L1": "KLYQSVGTMSHDKQSIA", "CDR-L2": "DMERRED", "CDR-L3": "QQYHRLPLS", "group": "En_HC", "Kd (apparent)": "nd", "detected": "0 of 6"}
{"CDR-L1": "KSSQSVLMESRNKNSVA", "CDR-L2": "DASTRLS", "CDR-L3": "QQYHRLPLS", "group": "GP_HC", "Kd (apparent)": "1.4 nM", "detected": "6 of 6"}
{"CDR-L1": "KSSQSVLDESRNKQSVA", "CDR-L2": "WASTRES", "CDR-L3": "QQYHRLPLS", "group": "Ctrl", "Kd (apparent)": "43 nM", "detected": "3 of 6"}
{"CDR-L1": "KLSQSVLYESRVKNNVA", "CDR-L2": "DASTRES", "CDR-L3": "QQYHRLPLS", "group": "GP_Gen", "Kd (apparent)": "580 pM", "detected": "6 of 6"}
{"CDR-L1": "KQSCSELYGSRNKNSVA", "CDR-L2": "DASQREE", "CDR-L3": "QQYHRLPLS", "group": "GP_Gibbs", "Kd (apparent)": "390 pM", "detected": "6 of 6"}

A sequence measured in both rounds can read differently, since the two assays cover different ranges. Nonspecific signal, from three strains lacking the peptide, appeared in 4% of pairings of all light chain designs, centred on 430 nM (5% of these signals below 38 nM); values are not corrected for it. The authors' rule: three or more of the six replicates give a measured affinity, fewer mean a poor binder.

Values reported by Li et al. 2023, doi:10.1038/s41467-023-39022-2 (FLAb copy).